The text below walks through data of ChEMBL document CHEMBL1157711, “Recent advances in the discovery of competitive protein tyrosine phosphatase 1B inhibitors for the treatment of diabetes, obesity, and cancer” (J Med Chem, 2010).

The experiment addresses T1, Tyrosine-protein phosphatase non-receptor type 1 (Homo sapiens, UniProt P18031).
T1 sequence (P18031 whole entry): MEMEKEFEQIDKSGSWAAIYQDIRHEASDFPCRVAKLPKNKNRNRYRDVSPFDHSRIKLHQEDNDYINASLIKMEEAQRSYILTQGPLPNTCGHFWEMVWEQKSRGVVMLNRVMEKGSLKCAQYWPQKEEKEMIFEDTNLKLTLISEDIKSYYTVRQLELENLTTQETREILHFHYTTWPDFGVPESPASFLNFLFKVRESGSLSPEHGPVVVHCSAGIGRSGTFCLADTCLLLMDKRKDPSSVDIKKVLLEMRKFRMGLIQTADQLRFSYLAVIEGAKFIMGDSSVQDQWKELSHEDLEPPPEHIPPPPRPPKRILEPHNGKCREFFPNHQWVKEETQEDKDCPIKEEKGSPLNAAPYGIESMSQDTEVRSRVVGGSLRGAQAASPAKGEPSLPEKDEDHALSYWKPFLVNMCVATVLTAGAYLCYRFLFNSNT
The experiment is described as follows: Inhibition of PTP1B.

SMILES strings stand for the structures.

The Ki is the equilibrium dissociation constant of an inhibitor or competing ligand from its target. Read a low Ki as higher affinity. With `CCc1cc(C[C@H](NC(C)=O)C(=O)NCCCCOc2cccc(O)c2C(=O)OC)ccc1N(C(=O)C(=O)O)c1ccccc1C(=O)O`, affinity was put at a Ki of 18 nM.
